Reference: US7005449B2, “Tolterodine salts” (Pharmacia & Upjohn Company, priority 2002, dated 2006)

Assay: Equilibrium solubility of tolterodine salts (shaking excess salt 24 hours, RP-HPLC)
Settings: for Equilibrium solubility in buffer: 0.1 M phosphate buffer pH 7.4, 24 hours; for Equilibrium solubility in buffer / Equilibrium solubility in water: room temperature; for final pH in buffer: final pH of the buffer solubility sample; for final pH in water: final pH of the water solubility sample; for Equilibrium solubility in water: 24 hours

Row | Compound | Equilibrium solubility in buffer [µg/mL] | final pH in buffer | final pH in water | Equilibrium solubility in water [µg/mL]
1 | Cc1ccc(O)c([C@H](CCN(C(C)C)C(C)C)c2ccccc2)c1.O=S(=O)(O)CCS(=O)(=O)O [Edisylate, tolterodine edisylate] | 8400 | 7.3 | 3.7 | 7100
2 | Cc1ccc(O)c([C@H](CCN(C(C)C)C(C)C)c2ccccc2)c1.Cl [HCl, reference compound] | 7500 | 7.3 | 7.0 | 8700
3 | Cc1ccc(O)c([C@H](CCN(C(C)C)C(C)C)c2ccccc2)c1.O=C(O)C(O)C(O)C(=O)O [tartrate, tolterodine tartrate, reference compound] | 9800 | 4.4 | 3.6 | 11400
